Water solubility values, as collected for the OPERA models

Values as listed in the OPERA 2.9 repository of K. Mansouri.

Water solubility is log10 of mol/L, nominally at 25 °C; higher is more soluble.

The entry for CC(C)(N)CO.CCCCCCCCCCCCc1ccccc1S(=O)(=O)O lists water solubility 0.214 (log10 mol/L).
The entry for Cc1nn(-c2ccccc2)c(=O)[c-]1/N=N/c1cc(Cl)c(S(N)(=O)=O)cc1[O-].Cc1nn(-c2ccccc2)c(=O)[c-]1/N=N/c1cc(Cl)c(S(N)(=O)=O)cc1[O-].[Cr+3].[Na+] lists water solubility -2.692 (log10 mol/L).
The entry for CCCCCCCCCCCCCCCC(=O)NCC(=O)O [N-Palmitoylglycine] lists water solubility -5.568 (log10 mol/L).
The entry for N#Cc1ccc2[nH]cc(CCCCN3CCN(c4ccc5oc(C(N)=O)cc5c4)CC3)c2c1 [Vilazodone] lists water solubility -3.555 (log10 mol/L).
The entry for C[C@@H](O)[C@H]1C(=O)N2C(C(=O)O)=C(S[C@@H]3CN[C@H](C(=O)Nc4cccc(C(=O)O)c4)C3)[C@H](C)[C@H]12 [Ertapenem] lists water solubility -3.221 (log10 mol/L).
The entry for O=C1CCc2ccccc2O1 [3,4-Dihydrocoumarin] lists water solubility -1.932 (log10 mol/L).
The entry for Cc1cc(C2C(=O)Oc3c2cc(C(C)(C)C)cc3C(C)(C)C)cc(C)c1OP1Oc2cc(C(C)(C)C)cc(C(C)(C)C)c2C(C)c2c(cc(C(C)(C)C)cc2C(C)(C)C)O1 (centres undefined) lists water solubility -8.222 (log10 mol/L).
The entry for CCCCOC(=O)C1CCC(O)CC1 (centres undefined) [4-Hydroxy-cyclohexanecarboxylic acid butyl ester] lists water solubility -1.806 (log10 mol/L).
The entry for CCCCCCCCCCCCCN(CC(C)O)CC(C)O (centres undefined) [1,1'-(Tridecylimino)bis-2-propanol] lists water solubility -4.661 (log10 mol/L).
The entry for CC(O)(CN)C(=O)O (centres undefined) [3-Amino-2-hydroxy-2-methylpropanoic acid] lists water solubility -1.336 (log10 mol/L).
The entry for COc1ccc(COC(C)=O)cc1 [4-Methoxybenzyl acetate] lists water solubility -2.466 (log10 mol/L).
The entry for CCCNc1c([N+](=O)[O-])cc(C(F)(F)F)cc1[N+](=O)[O-] [Benzenamine, 2,6-dinitro-N-propyl-4-(trifluoromethyl)-] lists water solubility -4.46 (log10 mol/L).
The entry for CCCCCCCCC(CCCCCC)C(=O)OC[C@H](OC(=O)C(CCCCCC)CCCCCCCC)[C@H]1OC(=O)C(OC(=O)C(CCCCCC)CCCCCCCC)=C1OC(=O)C(CCCCCC)CCCCCCCC (some centres not stated) [Tetrahexyldecyl ascorbate] lists water solubility -7.099 (log10 mol/L).
The entry for CCCN1CCCC[C@H]1C(=O)Nc1c(C)cccc1C [Ropivacaine] lists water solubility -3.035 (log10 mol/L).
The entry for Cc1ccc(S(=O)(=O)c2ccc(O)c(O)c2)cc1 [1,2-Benzenediol, 4-[(4-methylphenyl)sulfonyl]-] lists water solubility -3.503 (log10 mol/L).
The entry for C/C(=N/Nc1ccc([N+](=O)[O-])cc1[N+](=O)[O-])C(=O)O [2-[(Z)-2,4-dinitro-phenylhydrazono]-propionic acid] lists water solubility -1.017 (log10 mol/L).
The entry for CCC1(C)CC(=O)C(C)C(C)(CC)N1OC(C)c1ccccc1 (centres undefined) lists water solubility -6.179 (log10 mol/L).
The entry for C=CC(=O)CCC [1-Hexen-3-one] lists water solubility -0.83 (log10 mol/L).
The entry for CCOC(=O)CC[C@@H]1CC[C@H](CCC(=O)OCC)O1 lists water solubility -2.657 (log10 mol/L).
The entry for CCCCCCCCCc1cc(CN(CCO)CCO)c(O)c(CN(CCO)CCO)c1 [Phenol, 2,6-bis[[bis(2-hydroxyethyl)amino]methyl]-4-nonyl-] lists water solubility -2.886 (log10 mol/L).
The entry for NC(=O)c1cc(O)ccc1O [Gentisamide] lists water solubility -1.683 (log10 mol/L).
The entry for C=C(C)C1CCC(C)(O)CC1 (centres undefined) [beta-Terpineol] lists water solubility -1.846 (log10 mol/L).
The entry for C=C1C2CCC(C)(OCC)C1CCC2(C)C (centres undefined) [2-Ethoxy-2,6,6-trimethyl-9-methylenebicyclo[3.3.1]nonane] lists water solubility -4.734 (log10 mol/L).
The entry for Oc1nc2ccccc2[nH]1 [2H-Benzimidazol-2-one, 1,3-dihydro-] lists water solubility -2.393 (log10 mol/L).
The entry for CCCCC(CC)C1OCCO1 (centres undefined) [1,3-Dioxolane, 2-(1-ethylpentyl)-] lists water solubility -3.12 (log10 mol/L).
The entry for COc1c(C)c2c(c(O)c1C/C=C(\C)CCC(=O)O)C(=O)OC2 [Mycophenolic acid] lists water solubility -4.111 (log10 mol/L).
The entry for CCC(O)COC1CCCCC1C(C)(C)C (centres undefined) [2-Butanol, 1-[[2-(1,1-dimethylethyl)cyclohexyl]oxy]-] lists water solubility -3.699 (log10 mol/L).
The entry for N#CCCN(CCc1ccccc1)c1ccc(N=Nc2ccc([N+](=O)[O-])cc2C#N)cc1 lists water solubility -7.306 (log10 mol/L).
The entry for O=C1c2ccccc2C(=O)C1c1ccccc1 [Phenindione] lists water solubility -3.985 (log10 mol/L).
The entry for C#CCOc1c(I)cc(I)cc1/C=N/NC(=O)Cn1nnc(-c2ccccc2Cl)n1 [AC1NSYH9] lists water solubility -2.665 (log10 mol/L).
The entry for CC(O)CC(C)(C)c1ccccc1 (centres undefined) [Benzenepropanol, .alpha.,.gamma.,.gamma.-trimethyl-] lists water solubility -2.147 (log10 mol/L).
The entry for O=c1cnc2ncncc2[nH]1 [6-Hydroxypteridine] lists water solubility -2.714 (log10 mol/L).
The entry for CC(CCN(CCC(C)CC(C)(C)C)C(=S)[S-])CC(C)(C)C.CC(CCN(CCC(C)CC(C)(C)C)C(=S)[S-])CC(C)(C)C.[Zn+2] (centres undefined) [Zinc bis[bis(3,5,5-trimethylhexyl)carbamodithioate]] lists water solubility -6.103 (log10 mol/L).
The entry for CC(=O)CC(C)(C)C1CCCCC1 [4-Cyclohexyl-4-methyl-pentan-2-one] lists water solubility -3.548 (log10 mol/L).
The entry for CCCC(=O)n1ncc2c(=O)[nH]cnc21 [1-Butyryl-1,5-dihydro-4H-pyrazolo[3,4-d]pyrimidin-4-one] lists water solubility -3.273 (log10 mol/L).
The entry for CCCCCCCCCC[C@H]1O[C@H]1CCCCC(C)C [cis-7,8-Epoxy-2-methyloctadecane] lists water solubility -8.17 (log10 mol/L).
The entry for COC(=O)Cc1c(C(=O)OC)sc(N(CC(=O)OC)CC(=O)OC)c1C#N lists water solubility -3.836 (log10 mol/L).
The entry for O=S(=O)([O-])c1cccc(/N=N/c2ccc(/N=N/c3ccc(N(CCO)CCO)cc3)c3ccccc23)c1.[Na+] lists water solubility -3.97 (log10 mol/L).
The entry for CC(O)CCC1CCCCC1 (centres undefined) [alpha-Methylcyclohexanepropanol] lists water solubility -2.767 (log10 mol/L).
The entry for CCCCc1oc2ccc([N+](=O)[O-])cc2c1C(=O)c1ccc(O)cc1 lists water solubility -6.188 (log10 mol/L).
The entry for O=C1C(O)=C(Br)C(=O)C(O)=C1Br [2,5-Cyclohexadiene-1,4-dione, 2,5-dibromo-3,6-dihydroxy-] lists water solubility -2.313 (log10 mol/L).
The entry for C=CC(=O)OCCCCOC(=O)Oc1ccc(C(=O)c2ccccc2)cc1 lists water solubility -5.42 (log10 mol/L).
The entry for CC1(C)COC(=O)C2CC=CCC2C(=O)OC1 (centres undefined) lists water solubility -3.004 (log10 mol/L).
The entry for CN(C)C(=O)Nc1ccc(F)cc1 [Urea, 1,1-dimethyl-3-(p-fluorophenyl)-] lists water solubility -1.489 (log10 mol/L).
The entry for CC(=O)O[C@H]1CC[C@@]2(C)C(=CC[C@H]3[C@@H]4CC[C@H]([C@H](C)CCCC(C)C)[C@@]4(C)CC[C@@H]32)C1 [Cholest-5-en-3-ol (3.beta.)-, 3-acetate] lists water solubility -8.591 (log10 mol/L).
The entry for O=C(CCCl)OCCCCCl [4-Chlorobutyl 3-chloropropanoate] lists water solubility -2.407 (log10 mol/L).
The entry for C#CC(C)(O)CCC=C(C)CC (centres undefined) [6-Nonen-1-yn-3-ol, 3,7-dimethyl-] lists water solubility -2.303 (log10 mol/L).
The entry for NC(=O)c1ccc(Cl)c(N)c1 [Benzamide, 3-amino-4-chloro-] lists water solubility -1.977 (log10 mol/L).
The entry for CCCCCCCCCCCCCCCCCCCCCC(=O)OCC(CO)(CO)COC(=O)CCCCCCCCCCCCCCCCCCCCC [2,2-Bis(hydroxymethyl)propane-1,3-diyl didocosanoate] lists water solubility -8.349 (log10 mol/L).
The entry for CCOC(=O)C(C)(C)Oc1ccc(Cl)cc1 [Clofibrate] lists water solubility -3.917 (log10 mol/L).
The entry for COc1cc(-c2ccc(N=NC(C(C)=O)C(=O)Nc3ccccc3)c(OC)c2)ccc1N=NC(C(C)=O)C(=O)Nc1ccccc1 (centres undefined) [C.I. Pigment Orange 16] lists water solubility -8.617 (log10 mol/L).
The entry for CC(C)CCCCCC(=O)NCCCCCC(=O)O [6-(Isononanoylamino)hexanoic acid] lists water solubility -2.752 (log10 mol/L).
The entry for O=c1[nH]c(=O)n([C@H]2C[C@H](O)[C@@H](CO)O2)cc1F [Floxuridine] lists water solubility -0.781 (log10 mol/L).
The entry for Cc1cc(N(CCO)CCO)ccc1N=Nc1c(Cl)cc([N+](=O)[O-])cc1[N+](=O)[O-] lists water solubility -6.301 (log10 mol/L).

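The OPERA project collected these measurements from public sources as training and test data for property models. The files give a single number for a compound and property, which may rest on several reports. Method and conditions are not stated for these values. Where a salt, mixture or single isomer is drawn, the source does not say that exactly this form was tested. Unmarked limits or estimates from the upstream databases cannot be ruled out.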